The values below come from patent publication US20190127366A1 (LifeSci Pharmaceuticals, Inc., priority 2015, published 2019).

Protein sequences, listed by entry. Tags and fused reporters are not part of them. Residues count along the entry.
UniProt P00746, 26-253 limits assumed: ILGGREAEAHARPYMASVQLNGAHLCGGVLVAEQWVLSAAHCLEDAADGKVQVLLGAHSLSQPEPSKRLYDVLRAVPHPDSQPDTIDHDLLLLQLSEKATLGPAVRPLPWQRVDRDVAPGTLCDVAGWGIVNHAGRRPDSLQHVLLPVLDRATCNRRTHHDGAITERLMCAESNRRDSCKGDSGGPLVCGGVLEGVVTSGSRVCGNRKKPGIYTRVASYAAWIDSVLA

This assay addresses human complement factor D (Homo sapiens, UniProt P00746). Description: In vitro enzyme inhibition (Z-Lys-SBzl/DTNB absorbance assay). Conditions: read-out: CFD IC50; Complement Factor D (R&D Systems), substrate Z-Lys-SBzl, A405 nm. The protocol: The ability of the compounds disclosed herein to inhibit human complement factor D inhibitory activity was quantified according to the 12-step protocol provided below. • 1. Prepare assay buffer: 50 mM Tris/HCl, pH 7.5, 1 M NaCl. • 2. Dilute 10 mM Complement Factor D inhibitor Nafamostat Mesilate (Selleckchem, Catalog #S1386) solution from 10000 μM to 9.77 μM in 100% DMSO, 8 concentrations. Then dilute the serial concentrations of Nafamostat Mesilate 20-fold in assay buffer. • 3. Add 10 μl diluted Nafamostat Mesilate duplicated into each of the inhibitor control well of a 96-well plate (Corning, Catalog #3599). Final concentrations were 50 μM, 25 μM, 12.5 μM, 6.25 μM, 3.125 μM, 0.781 μM, 0.195 μM and 0.049 μM. 0.5% DMSO was in each well finally. • 4. Dilute 20 mM test compounds from 10000 μM to […] in 100% DMSO, 6-fold dilution, 8 concentrations. Then dilute the serial concentrations of test compounds 20-fold in assay buffer. • 5. Add 10 μl diluted test compounds duplicated into the 96-well plate. Final concentrations were 50 μM, 8.33 μM, 1.39 μM, 0.23 μM, 0.0386 μM, 0.0064 μM, 0.0011 μM and 0.0002 μM. 0.5% DMSO was in each well finally. • 6. Dilute 20 mM substrate Z-Lys-SBzl (Bachem, Cat #M-1300) to 200 μM in assay buffer with 200 μM DTNB(Sigma, Catalog #D8130). • 7. Dilute 738 ng/μL Complement Factor D (R&D Systems, Catalog #1824-SE) to 6.25 ng/μL in assay buffer. Add 40 μl diluted Complement Factor D in the 96-well plate. • 8. Positive control well contains Complement Factor D without test compound. Negative control well contains neither Complement Factor D nor test compound. Using assay buffer, bring the total volume of all controls to 50 μl. • 9. Pre-incubate the plate for 5 min at room temperature. • 10. Add 50 μl of diluted substrate/DTNB mixture into each well. Mix the reagents completely by shaking the plate gently for 30 sec. • 11. For kinetic reading: Immediately start measuring absorbance (A405 nm) continuously and record data every 30sec for 60 min. • 12. Data analysis • Inhibition activity of compound was evaluated by IC50. IC50 was calculated according the dose-response curve of compound fitted using GraphPadPrism with “log(inhibitor)-response (variable slope)” equation. • % inhibition was calculated by using following equation:
[formula] • Mean(NC): The average value of the negative control wells' A405 nm values. • Mean(PC): The average value of the positive control wells' A405 nm values.
The ability of the compounds in Table 2 to inhibit human complement factor D inhibitory activity was determined.
As for `NC(=O)c1nn(CC(=O)N2[C@@H]3CC[C@@H](C3)[C@H]2C(=O)NC(C(N)=O)c2cccc(Cl)c2F)c2ccccc12` (stereo partly shown), the IC50 (commonly the concentration that gives 50% inhibition) was 1 to 10 µM.

As for `NC(=O)c1nn(CC(=O)N2[C@@H]3CC[C@@H](C3)[C@H]2C(=O)Nc2cccc(OC(F)(F)F)c2F)c2ccc(C3CC3)cc12`, the IC50 fell in the range of 1 to 10 µM.

`NC(=O)c1nn(CC(=O)N2[C@@H]3CC[C@@H](C3)[C@H]2C(=O)Nc2cccc(Cl)c2F)c2ccc(C3CC3)cc12`: the IC50 lay in the range of 1 to 10 µM.

On to `NC(=O)c1nc(CC(=O)N2[C@@H]3CC[C@@H](C3)[C@H]2C(=O)NCc2cccc(Cl)c2F)n2ccccc12`, for which the IC50 fell in the range of 1 to 10 µM.
